Experiment [1] deals with Bifidobacterium longum subsp. infantis. The note with it: ATCC 15697, at 1 mM.
The test system is the same in experiment [2]. The settings on record: ATCC 15697, at 0.1 mM.
The target in the next experiment is Sialidase A (Streptococcus pneumoniae, UniProt P62575). The experiment in a line: Inhibition of Streptococcus pneumoniae NanA using Neu5Acalpha2-3GalbetapNP as substrate after 30 mins by colorimetric assay.

Protein sequences, listed by entry. Tags and fused reporters are not part of them. Lines headed by an entry give the natural chain unless they say otherwise; changes in a name come on top.
UniProt P62575: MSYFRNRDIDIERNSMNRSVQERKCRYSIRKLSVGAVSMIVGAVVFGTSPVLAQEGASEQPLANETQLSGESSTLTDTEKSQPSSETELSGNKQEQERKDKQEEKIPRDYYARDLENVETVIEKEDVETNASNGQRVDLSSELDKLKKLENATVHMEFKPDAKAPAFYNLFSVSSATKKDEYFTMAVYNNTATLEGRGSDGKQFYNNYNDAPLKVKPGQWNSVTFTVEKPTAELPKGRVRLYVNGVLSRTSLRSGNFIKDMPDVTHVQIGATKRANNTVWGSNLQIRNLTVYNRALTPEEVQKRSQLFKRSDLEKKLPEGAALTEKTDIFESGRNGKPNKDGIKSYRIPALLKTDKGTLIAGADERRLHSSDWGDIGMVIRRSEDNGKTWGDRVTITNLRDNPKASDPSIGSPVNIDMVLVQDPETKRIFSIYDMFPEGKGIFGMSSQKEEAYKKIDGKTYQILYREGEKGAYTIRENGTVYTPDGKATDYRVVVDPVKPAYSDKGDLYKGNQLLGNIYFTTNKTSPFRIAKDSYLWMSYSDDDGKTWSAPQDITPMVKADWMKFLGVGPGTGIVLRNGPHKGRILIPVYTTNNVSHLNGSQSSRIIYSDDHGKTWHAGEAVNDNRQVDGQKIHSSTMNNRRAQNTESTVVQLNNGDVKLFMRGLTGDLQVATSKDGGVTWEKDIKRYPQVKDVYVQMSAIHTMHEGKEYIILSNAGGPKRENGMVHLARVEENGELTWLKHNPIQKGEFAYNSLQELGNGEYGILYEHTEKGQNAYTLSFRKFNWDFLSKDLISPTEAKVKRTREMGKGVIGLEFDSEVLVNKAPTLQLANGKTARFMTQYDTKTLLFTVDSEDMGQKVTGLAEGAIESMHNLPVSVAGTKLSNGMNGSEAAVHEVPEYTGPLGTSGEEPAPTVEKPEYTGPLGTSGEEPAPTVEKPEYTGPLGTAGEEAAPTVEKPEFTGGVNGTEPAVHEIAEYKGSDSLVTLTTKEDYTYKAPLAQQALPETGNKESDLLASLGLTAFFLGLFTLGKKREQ

In general, inhibition refers to how much of the control response was suppressed. The low end stands for a weak effect, the high end for a strong effect. The term IC50 denotes the concentration that inhibits the measured activity by half. Read a high IC50 as weaker potency. In the case of `CC(=O)N[C@H]1[C@H]([C@H](O)[C@H](O)CO)OC(C(=O)O)=C[C@@H]1O` [NEU5AC2EN], the inhibition in experiment [1] was 91.1%; in experiment [2], 66.7%. The molecule further displayed an IC50 against Sialidase A of 10 µM.

The record behind these values is ChEMBL document CHEMBL4261630.
